Source: patent US5183883A, “Conjugate of adriamycin and cyclodextrin” (Mercian Corporation, priority 1990, dated 1993)

Key:
[1] = Sustained release test (adriamycin liberated in phosphoric acid buffer physiological saline); type: physicochemical; details: about 1 mg in 0.0067 M phosphoric acid buffer physiological saline, initial pH=7.36-7.37, 37° C., HPLC
Method: One milligram of each of the adriamycin derivatives obtained in Examples 1, 2, 3, 4, 5 and 6 to be described later was dissolved in 0.0067 M phosphoric acid buffer physiological saline solution made by Bioproducts, Inc. (initial pH=7.36-7.37), and the solution was kept at 37° C. The amount of adriamycin liberated in the solution was analyzed by HPLC [column=YMC Pack A-312 S-5 120A ODS; mobile phase=0.05M ammonium formate buffer (pH=4.0):- acetonitrile=7:4, flow rate=1 ml/min; measuring wavelength=254 nm; retention time of adriamycin under the present conditions=3.8 minutes].
Consequently, a 50 % released time of adriamycin from the adriamycin derivatives is as follows, and sustained release was confirmed.

mouse leukemia cells = test: Cytotoxicity test; details: 48 hours, 37° C., RPMI1640 with 10% horse serum, trypan blue
Method: 5×10^4 cells/ml of mouse leukemia cells were inoculated in a RPMI1640 culture medium containing 10% horse serum, and the compound of the present invention was added to this such that the final concentration became 0.001 to 10.0 μg/ml. Cultivation was conducted in a carbon dioxide gas incubator (air containing 5% carbon dioxide gas) at 37° C. for 48 hours.

Toxicity test LD50 = type: in vivo; details: mice, intravenously administered once
Excerpt: LD50 given when the adriamycin derivatives of this invention were intravenously administered once in mice is as follows.

For “adriamycin-succinic acid-γ-cyclodextrin conjugate [ASC]”, the “50 % released time of adriamycin from the adriamycin derivatives” value [1] was “about 1 hour”, the “Cytotoxicity, IC50” value (mouse leukemia cells) was 0.18 µg/mL and the LD50 (Toxicity test LD50; as derivative) was 200 to 400 mg/kg. For the same substance, the LD50 as adriamycin (Toxicity test LD50; calculated as adriamycin) was 50-100 mg/kg as adriamycin.
